Earlier results on one substance are cited in patent US6994987B1, “Process for producing tripeptides” (Calpis Co., Ltd., priority 1999, dated 2006).

Chains of the proteins cited; added tags and fusions are not shown. Residues count along the entry.
UniProt P12821, 30-1306, species assumed: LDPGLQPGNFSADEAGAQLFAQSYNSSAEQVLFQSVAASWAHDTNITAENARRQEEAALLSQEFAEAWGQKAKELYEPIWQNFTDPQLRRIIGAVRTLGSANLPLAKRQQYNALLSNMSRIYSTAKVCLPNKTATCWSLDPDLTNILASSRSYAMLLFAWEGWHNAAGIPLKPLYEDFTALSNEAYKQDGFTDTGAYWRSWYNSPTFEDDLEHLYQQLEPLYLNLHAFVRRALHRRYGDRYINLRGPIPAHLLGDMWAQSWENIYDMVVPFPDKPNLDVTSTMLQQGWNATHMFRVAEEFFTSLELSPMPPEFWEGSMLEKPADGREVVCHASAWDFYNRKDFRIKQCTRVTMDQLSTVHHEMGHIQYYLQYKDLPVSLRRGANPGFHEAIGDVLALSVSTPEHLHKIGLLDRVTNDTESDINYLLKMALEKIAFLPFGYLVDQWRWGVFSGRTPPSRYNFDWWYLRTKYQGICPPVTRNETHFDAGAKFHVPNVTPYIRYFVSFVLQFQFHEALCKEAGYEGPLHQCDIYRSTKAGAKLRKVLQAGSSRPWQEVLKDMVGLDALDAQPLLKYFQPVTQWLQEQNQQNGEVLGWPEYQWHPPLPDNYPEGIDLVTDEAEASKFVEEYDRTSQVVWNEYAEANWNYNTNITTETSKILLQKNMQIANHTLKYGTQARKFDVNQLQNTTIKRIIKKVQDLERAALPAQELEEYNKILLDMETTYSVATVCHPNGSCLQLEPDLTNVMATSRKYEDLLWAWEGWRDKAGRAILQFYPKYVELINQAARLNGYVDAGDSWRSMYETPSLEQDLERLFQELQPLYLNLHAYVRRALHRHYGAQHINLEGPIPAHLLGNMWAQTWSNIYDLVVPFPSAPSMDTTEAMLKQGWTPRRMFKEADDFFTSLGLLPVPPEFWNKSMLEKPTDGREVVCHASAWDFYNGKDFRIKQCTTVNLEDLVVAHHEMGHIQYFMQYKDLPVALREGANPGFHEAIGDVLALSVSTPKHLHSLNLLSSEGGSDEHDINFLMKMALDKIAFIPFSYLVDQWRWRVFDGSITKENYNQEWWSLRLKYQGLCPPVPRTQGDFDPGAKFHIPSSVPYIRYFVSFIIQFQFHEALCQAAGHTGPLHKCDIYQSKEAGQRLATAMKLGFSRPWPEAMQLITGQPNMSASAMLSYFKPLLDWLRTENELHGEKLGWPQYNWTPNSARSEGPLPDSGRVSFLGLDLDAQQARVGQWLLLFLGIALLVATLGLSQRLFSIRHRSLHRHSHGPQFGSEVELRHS

The series has as its target angiotensin converting enzyme (ACE) (Homo sapiens, UniProt P12821). Particulars: known in the prior art; cited from earlier work.

For Val Pro Pro [Val-Pro-Pro], the ACE inhibitory activity entry is recorded as “strong”.
